What was measured:
[1] = target: electric eel AChE (eeAChE) (Electrophorus electricus, UniProt O42275); assay: biochemical
[2] = target: BuChE (from equine serum) (Equus caballus, UniProt P81908); assay: biochemical

By UniProt entry, the sequences of proteins in these tests, tags left out. Residues count along the entry.
UniProt O42275, 24-633: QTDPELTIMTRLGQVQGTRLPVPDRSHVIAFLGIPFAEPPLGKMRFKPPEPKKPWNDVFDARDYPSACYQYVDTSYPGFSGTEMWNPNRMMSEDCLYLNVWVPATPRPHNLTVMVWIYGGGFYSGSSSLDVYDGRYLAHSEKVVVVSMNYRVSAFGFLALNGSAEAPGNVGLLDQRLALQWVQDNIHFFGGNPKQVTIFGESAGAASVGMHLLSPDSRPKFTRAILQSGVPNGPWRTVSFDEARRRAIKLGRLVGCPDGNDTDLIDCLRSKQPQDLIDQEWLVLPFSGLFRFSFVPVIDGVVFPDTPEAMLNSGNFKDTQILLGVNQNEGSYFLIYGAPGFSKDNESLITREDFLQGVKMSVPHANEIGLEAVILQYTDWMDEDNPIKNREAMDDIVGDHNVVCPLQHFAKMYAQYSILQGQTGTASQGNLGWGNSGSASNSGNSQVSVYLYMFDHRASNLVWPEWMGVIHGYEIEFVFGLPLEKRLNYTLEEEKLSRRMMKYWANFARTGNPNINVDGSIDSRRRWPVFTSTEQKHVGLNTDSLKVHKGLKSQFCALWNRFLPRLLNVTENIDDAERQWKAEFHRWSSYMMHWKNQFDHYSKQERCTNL
UniProt P81908, whole entry: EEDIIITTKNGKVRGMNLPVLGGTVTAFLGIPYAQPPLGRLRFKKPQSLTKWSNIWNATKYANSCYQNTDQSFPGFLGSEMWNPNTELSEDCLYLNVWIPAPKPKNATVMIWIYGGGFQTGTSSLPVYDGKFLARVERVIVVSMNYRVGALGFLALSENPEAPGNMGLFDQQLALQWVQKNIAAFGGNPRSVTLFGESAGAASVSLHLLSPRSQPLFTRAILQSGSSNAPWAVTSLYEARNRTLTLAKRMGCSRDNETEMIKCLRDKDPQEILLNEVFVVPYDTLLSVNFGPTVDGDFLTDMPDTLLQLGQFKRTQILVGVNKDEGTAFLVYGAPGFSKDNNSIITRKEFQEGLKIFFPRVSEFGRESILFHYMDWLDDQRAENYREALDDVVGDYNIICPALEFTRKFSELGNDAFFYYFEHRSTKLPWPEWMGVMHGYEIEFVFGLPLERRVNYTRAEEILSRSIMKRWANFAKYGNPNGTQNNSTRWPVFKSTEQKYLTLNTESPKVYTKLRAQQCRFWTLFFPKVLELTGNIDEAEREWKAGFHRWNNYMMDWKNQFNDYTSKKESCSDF

Structure (SMILES)	IC50 [1]	IC50 [2]
CCOP(=O)(Cc1cccc(CN)c1)OCC [8b]	> 1000 µM	> 1000 µM
CCOP(=O)(Cc1ccccc1CN)OCC [8a]	1.215 ± 0.006 µM	> 1000 µM
CCOP(=O)(Cc1ccc(CN)cc1)OCC [8c]	> 1000 µM	363 ± 29 µM
